The values below come from patent US20130213851A1, “OMEGA 3 FATTY ACID FORMULATIONS” (CENESTRA LLC., priority 2005, published 2013).

The series has as its system Attention Deficit Hyperactivity Disorder (ADHD)-combined type, and Tic Disorder. Briefly: Case report: cognition, attention and tics after OMAX3 augmentation. The series is classed as in vivo, human. The conditions noted are these: past use for tics, patient history. How it is done: […] […] Past medication trials included: Strattera (atomoextine), Adderall, Adderall XR, methylphenidate, Tenex (guanfacine), and Concerta. His most recent medication treatment was with Concerta 54 mg per day.
R's Tic Disorder was comprised of both vocal and motor tics in the form of random verbalizations or screeching sounds, as well as either a facial and neck twitch.
The patient was treated with OMAX3, 2 capsules per day (1125 mg EPA, 275 mg DHA, 1500 mg Total Omega-3 fatty acids) for the purpose of enhancing their attention and cognitive function.

With `Cc1nc2n(c(=O)c1CCN1CCC(c3noc4cc(F)ccc34)CC1)CCCC2` [Risperdal, risperidone], the tolerability entry is on record as “poor tolerability”.
